Assays:
[1] = Body weight variations of mice in PDX gastric tumor model; assay type: in vivo, BALB/c nu/nu nude mice; conditions: 10 mg/kg intravenously, weekly for a period of 45 days, FIG. 4B
From the text: (§1) For development of patient-derived gastric carcinoma xenograft (PDX) mouse models, female Balb/c nude mice (from SLAC, Shanghai, China) of 6-8 weeks old were used for tumor fragment implantation. Animals were fed with normal nude mice diet and housed in SPF animal facility in accordance with the Guide for Care and Use of Laboratory Animals and regulations of the Institutional Animal Care and Use Committee. Patent STO #69 gastric tumor fragments of about 15-30 mm^3 in size were implanted (s.c.) into right flanks of Balb/c nude mice.
(§2) Drugs were administered by i.v. route with 5˜20 mg/kg of antibody or 20 mg/kg of Tarceva or reference drug, QWKx3. Tumors were measured once a week by caliper to determine its subcutaneous growth. Tumors were measured twice a week in two dimensions with calipers. Tumor volume was calculated using following formula: tumor volume=(length×width2)×0.5. Average tumor volumes or body weights were plotted using graph program Prism 5 (GraphPad). An endpoint for efficacy study was set at 30-45 days post-first treatment or when a tumor size reached above 2000 mm3, whichever came first. If a mouse lose more than 20% of body weight or is very sick and cannot get to adequate food or water, it will be removed from the study and euthanized. Tumors were collected from mice at the end point, half frozen in LN2 and half fixed in formalin for preparing FFPE tissues.

[2] = tested on: patient derived gastric tumor; assay: Survival in patient derived gastric tumor (PDX) xenograft model; assay type: in vivo, BALB/c nu/nu nude mice; conditions: 10 mg/kg intravenously, weekly for a period of 45 days; mice bearing subcutaneous patient derived gastric tumor; FIG. 4C
From the text: as §1, §2

Trastuzumab: humanized monoclonal antibody that acts on human epidermal growth factor receptor extracellular domain of Her2
Body weight variations of the mice during and after therapy [1]: No detectable weight loss | Survival curves of treatment and control groups [2]: substantial prolongation

Trastuzumab MC-vc-TLRL
Body weight variations of the mice during and after therapy [1]: No detectable weight loss | Survival curves of treatment and control groups [2]: substantial prolongation

— patent US10660971B2, “Compounds for targeted immunotherapy” (priority 2012, dated 2020)
